# Antibody variant affinities, Ab-14 heavy chain, assay B

Source: Li et al. 2023 (doi:10.1038/s41467-023-39022-2), MIT Lincoln Laboratory and A-Alpha Bio; data file from the FLAb repository.

Target: peptide PDVDLGDISGINAS, taken from heptad repeat 2 (HR2) of SARS-CoV-2 spike.

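These sequences belong to a second round, designed from the earlier measurements on random variants of the parent. Group labels follow the data file (Ctrl: baseline library sampled from a position-specific scoring matrix, with some repeated check sequences; GP: Gaussian process model; GPLM: also part of the Gaussian process libraries; Gen: genetic algorithm; Gibbs: Gibbs sampling; a sequence that several methods proposed may carry one label only). In AlphaSeq, yeast of one mating type display the scFv and yeast of the other type display the target. Binding brings cells together so that they mate, and sequencing counts the barcode pairs among the diploids. A regression on co-assayed BCL2-family reference pairs converts the normalised counts of each replicate to an apparent Kd. Each pool was mated in six replicate cultures.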

Parent: Ab-14, a human scFv built as VH, the linker GGGGSGGGGSGGGGS, VL. Only the CDRs of the heavy chain vary.
VH: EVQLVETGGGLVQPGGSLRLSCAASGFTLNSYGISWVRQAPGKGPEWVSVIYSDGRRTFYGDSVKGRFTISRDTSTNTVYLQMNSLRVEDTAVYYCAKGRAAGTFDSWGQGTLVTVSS
VL: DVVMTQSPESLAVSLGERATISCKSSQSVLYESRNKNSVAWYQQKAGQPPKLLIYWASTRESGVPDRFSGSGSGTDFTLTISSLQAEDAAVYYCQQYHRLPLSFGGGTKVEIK

Positions count from residue 1 of the parent VH; F27N puts N in place of F. Numbers give log10(Kd / nM), so 0 is 1 nM and 3 is 1 µM. Smaller is tighter. A mean of the replicates is given; it leaves out those without a signal. An entry "ND" has no value in the source: the pair was not observed among the diploids in that replicate. This suggests poor binding but is not conclusive. The authors' rule: three or more of the six replicates give a measured affinity, fewer mean a poor binder.

| # | changes | group | replicates, log10 nM | log10 Kd (nM), mean | signal with controls |
|---|---|---|---|---|---|
| 1 | F27N G61R | Ctrl | ND / ND / 2.60 / 1.97 / 3.25 / ND | 2.61 | 0/18 |
| 2 | R100T A101E | Ctrl+GP_Gibbs | -0.12 / 1.04 / -0.29 / -0.73 / 0.83 / 0.11; 1.39 / ND / ND / 1.18 / 1.05 / 1.65 | 0.61 | 0/36 |
| 3 | T28N G61D | Ctrl | 0.71 / 1.26 / 1.01 / 0.70 / 0.78 / 0.76 | 0.87 | 2/18 (2.14) |
| 4 | S31D A101I D106K S107G | Ctrl | ND / ND / ND / ND / ND / ND | ND | 0/18 |
| 5 | N30D S63Y G99R G103V D106V | Ctrl | ND / ND / ND / ND / ND / ND | ND | 0/18 |
| 6 | T28Q L29I K65A | Ctrl | 0.42 / 0.18 / 0.29 / 0.05 / 1.34 / 0.60 | 0.48 | 0/18 |
| 7 | L29V A101V | Ctrl | -0.12 / 0.09 / 0.34 / 0.08 / 0.93 / 0.93 | 0.37 | 0/18 |
| 8 | A101V D106S | Ctrl | ND / ND / ND / ND / 2.25 / ND | 2.25 | 0/18 |
| 9 | N30G F59A R100H A101M G103I | Ctrl | 1.57 / 2.05 / ND / 1.41 / 0.72 / 2.02 | 1.56 | 0/18 |
| 10 | N30E S31E G61Q R100V | Ctrl | -0.21 / -0.40 / -0.43 / 0.15 / 0.27 / 0.58 | 0.00 | 0/18 |
| 11 | N30D K65S A101I | Ctrl | 1.41 / 2.07 / 2.67 / 1.91 / 2.64 / ND | 2.14 | 1/18 (2.08) |
| 12 | L29I R100V | Ctrl | 1.73 / 2.06 / 2.97 / 1.80 / 1.92 / 1.75 | 2.04 | 0/18 |
| 13 | L29M S53A F105P | Ctrl | ND / ND / ND / ND / ND / ND | ND | 0/18 |
| 14 | F27N I34M R56H G99Q R100Q | Ctrl | ND / ND / ND / ND / ND / ND | ND | 0/18 |
| 15 | N30Q R56K | Ctrl | 1.43 / ND / 2.37 / 1.66 / ND / ND | 1.82 | 0/18 |
| 16 | S53R R100S T104W | Ctrl | ND / ND / ND / ND / ND / ND | ND | 0/18 |
| 17 | K65H S107Q | Ctrl | ND / ND / ND / ND / ND / ND | ND | 0/18 |
| 18 | T28S S63Q | Ctrl | 0.80 / 1.10 / 1.36 / 1.64 / 1.10 / 1.23 | 1.20 | 0/18 |
| 19 | F59A G99A S107K | Ctrl | ND / ND / ND / ND / ND / ND | ND | 0/18 |
| 20 | G61A R100S | Ctrl+GPLM_Gen | 0.50 / 0.93 / 0.88 / 0.79 / 0.40 / 0.47; 1.04 / ND / 0.64 / 0.65 / 1.56 / 2.19 | 0.91 | 1/36 (1.85) |
| 21 | S53A R56Y R100S T104L S107I | Ctrl | ND / ND / ND / ND / ND / ND | ND | 0/18 |
| 22 | Y32F F59A A102Q | Ctrl | ND / ND / ND / ND / ND / ND | ND | 0/18 |
| 23 | R56F T58V | Ctrl | ND / ND / ND / ND / ND / ND | ND | 0/18 |
| 24 | S31D I34W D62P | Ctrl | ND / ND / ND / ND / ND / ND | ND | 0/18 |
| 25 | T104F S107L | Ctrl | ND / ND / ND / ND / ND / ND | ND | 0/18 |
| 26 | I51M R100A | Ctrl | ND / ND / 0.86 / 1.19 / ND / ND | 1.02 | 0/18 |
| 27 | G26K G61D A101E T104K D106R | Ctrl | ND / ND / ND / ND / ND / ND | ND | 0/18 |
| 28 | R56Y D106L | Ctrl | ND / ND / ND / ND / ND / ND | ND | 0/18 |
| 29 | S53A G61N G103D | Ctrl | ND / ND / ND / ND / ND / ND | ND | 0/18 |
| 30 | R56Y R100D A101E F105G | Ctrl | ND / ND / ND / ND / ND / ND | ND | 0/18 |
| 31 | R56L F59A G61L S63D A102K G103A D106F | Ctrl | ND / ND / ND / ND / ND / ND | ND | 0/18 |
| 32 | G61D V64T K65S T104Y | Ctrl | ND / ND / ND / ND / ND / ND | ND | 0/18 |
| 33 | S31D V64F A102E F105W | Ctrl | -0.03 / 1.50 / 0.81 / 0.44 / -0.03 / 0.46 | 0.53 | 0/18 |
| 34 | R56I G61L | Ctrl | ND / ND / ND / 1.17 / ND / 3.07 | 2.12 | 0/18 |
| 35 | T28S G61Q A101N | Ctrl+GP_Gen | 1.49 / 0.48 / 0.08 / -0.21 / 0.71 / 0.57; 0.52 / 0.32 / 0.93 / 0.58 / 1.12 / 0.80 | 0.62 | 1/36 (1.32) |
| 36 | T28N R56M G61E A101E A102M G103A | Ctrl | ND / ND / ND / ND / ND / ND | ND | 0/18 |
| 37 | S31Q S53A R100E F105S | Ctrl | ND / ND / ND / ND / ND / ND | ND | 0/18 |
| 38 | T28E G61K R100K A102S F105S D106N | Ctrl | ND / ND / ND / ND / ND / ND | ND | 0/18 |
| 39 | G61A A101V | Ctrl+GPLM_Gen | 1.64 / 0.17 / 0.12 / 0.37 / 0.89 / 0.72; 0.75 / 0.56 / 0.12 / 0.63 / 0.38 / 0.47 | 0.57 | 0/36 |
| 40 | S31D R56F F105A | Ctrl | ND / ND / ND / ND / ND / ND | ND | 0/18 |

Repeated from above, the 5 best binders with a signal in all replicates:

| changes | group | replicates, log10 nM | log10 Kd (nM), mean | signal with controls |
|---|---|---|---|---|
| N30E S31E G61Q R100V | Ctrl | -0.21 / -0.40 / -0.43 / 0.15 / 0.27 / 0.58 | 0.00 | 0/18 |
| L29V A101V | Ctrl | -0.12 / 0.09 / 0.34 / 0.08 / 0.93 / 0.93 | 0.37 | 0/18 |
| T28Q L29I K65A | Ctrl | 0.42 / 0.18 / 0.29 / 0.05 / 1.34 / 0.60 | 0.48 | 0/18 |
| S31D V64F A102E F105W | Ctrl | -0.03 / 1.50 / 0.81 / 0.44 / -0.03 / 0.46 | 0.53 | 0/18 |
| G61A A101V | Ctrl+GPLM_Gen | 1.64 / 0.17 / 0.12 / 0.37 / 0.89 / 0.72; 0.75 / 0.56 / 0.12 / 0.63 / 0.38 / 0.47 | 0.57 | 0/36 |

Values of this round are not directly comparable with the first-round values of the same sequences. Nonspecific signal, from three strains lacking the peptide, appeared in 1% of pairings of all heavy chain designs, centred on 2.08 (5% of these signals below 0.84); values are not corrected for it. For each scFv, signals with the empty controls are counted beside the result, with their mean in brackets. Where one sequence has several entries in the source, the replicates are listed entry by entry, parted by semicolons.